# From US9169254B2, “Spiroimidazolone derivative” (Chugai Seiyaku Kabushiki Kaisha, priority 2009, dated 2015)
# Biological target: T1, human PTH1 receptor (Homo sapiens, UniProt Q03431)
# T1 sequence (Q03431 27-593): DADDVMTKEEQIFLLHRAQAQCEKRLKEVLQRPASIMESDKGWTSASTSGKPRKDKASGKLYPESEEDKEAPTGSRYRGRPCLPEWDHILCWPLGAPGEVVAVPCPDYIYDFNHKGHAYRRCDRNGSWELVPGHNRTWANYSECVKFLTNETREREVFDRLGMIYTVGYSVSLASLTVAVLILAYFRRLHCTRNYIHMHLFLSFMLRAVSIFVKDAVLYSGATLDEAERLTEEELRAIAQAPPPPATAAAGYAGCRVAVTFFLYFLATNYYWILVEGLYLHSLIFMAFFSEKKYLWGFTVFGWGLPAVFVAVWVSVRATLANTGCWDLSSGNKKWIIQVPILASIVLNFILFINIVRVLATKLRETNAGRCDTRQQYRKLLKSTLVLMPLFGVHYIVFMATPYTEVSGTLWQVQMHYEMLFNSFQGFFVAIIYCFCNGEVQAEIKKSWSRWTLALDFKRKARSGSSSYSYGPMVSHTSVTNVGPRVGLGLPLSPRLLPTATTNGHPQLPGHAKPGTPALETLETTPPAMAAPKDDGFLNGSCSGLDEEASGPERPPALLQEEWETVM
# Experiment: In vitro cAMP signal activity in HKRK-B7 cells (LLC-PK1 cells overexpressing the human PTH1 receptor)
# Type: cell-based
# Details: 0.1 µM
smiles,measurement,value
"Cc1cc(CC(=O)N(C)C)ccc1/C=C/S(=O)(=O)N1CCC2(CC1)N=C(C1CCC(C)CC1)NC2=O (stereo not shown) [Compound 987, N,N-Dimethyl-2-(3-methyl-4-{(E)-2-[2-(4-methyl-cyclohexyl)-4-oxo-1,3,8-triaza-spiro[4.5]dec-1-ene-8-sulfonyl]-vinyl}-phenyl)-acetamide]",cAMP production activity (%),54%
